Test results from patent US11918570B2, “Method of treatment for prevention of glucocorticoid toxicity and/or enhancement of muscle regeneration via neutrophil elastase inhibition” (The Research Foundation for The State University of New York, priority 2020, dated 2024).

System: myoblasts isolated from a patient affected by Duchenne muscular dystrophy
Experiment: NE-induced myoblast death, DMD patient myoblasts treated with human NE
Assay type: cell-based
Description: The number of live cells in each condition was counted and plotted as percentage of the number of live cells in the untreated (Control) condition.

With `CC(=O)C1=C(C)N(c2cccc(C(F)(F)F)c2)C(=O)N[C@@H]1c1ccc(C#N)nc1` [BAY-678] the “rescue of NE-induced myoblast death (number of live cells as percentage of untreated Control)” value (DMD patient myoblasts treated with human NE, FIG. 1D) was “similarly effective at rescuing NE-induced myoblast cell death; also recorded: similarly effective at blocking NE-induced myoblast death” and the “effectiveness against human NE compared with mouse NE” value (comparison of FIG. 1D (hNE) and FIG. 1E (mNE)) was “most effective against human NE”.

Entries after “also recorded” stand apart in the source; their conditions may differ.
